Yeast mating assay 2: variants of the scFv Ab-95

The measurements come from Engelhart et al. 2022 (doi:10.1038/s41597-022-01779-4) through the FLAb antibody collection.

Target peptide (SARS-CoV-2 spike, HR2 region): PDVDLGDISGINAS

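The starting antibody came from a phage panning campaign against this peptide. AAYL52 was designed without a model: most single CDR substitutions and a random sample of double and triple ones. AlphaSeq pools MATa yeast showing the antibodies with MATalpha yeast showing the peptide. Mating (16 h, 30 °C) was followed by selection of diploids and sequencing of their barcodes. Scores were corrected for input abundance and mapped to Kd with protein pairs of known affinity run in the same pool. Each pool was mated in three replicate cultures.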

Ab-95 is the parent antibody, in scFv form: VH, then a 15-residue (Gly4Ser)3 linker, then VL. The heavy chain is unchanged in all variants.
VH: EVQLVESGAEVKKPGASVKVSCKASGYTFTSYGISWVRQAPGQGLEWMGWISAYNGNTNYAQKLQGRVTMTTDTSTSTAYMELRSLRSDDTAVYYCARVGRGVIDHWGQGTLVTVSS
VL: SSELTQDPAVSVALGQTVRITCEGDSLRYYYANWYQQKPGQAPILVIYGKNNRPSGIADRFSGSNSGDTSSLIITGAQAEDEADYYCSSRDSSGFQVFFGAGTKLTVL

Variants are written as CDR1, CDR2 and CDR3 of the light chain (limits as in the source). Parent: EGDSLRYYYAN, GKNNRPS, SSRDSSGFQVF. Affinities are written as log10 Kd with Kd in nM; a lower number is a better binder. A mean of the replicates is given; it leaves out those without a signal. An entry "n.d." has no value in the source: the pair was not observed among the diploids in that replicate. This suggests poor binding but is not conclusive. Parent in this assay: reference entry 2.31, copy in this library 2.25. Background: pairings of library AAYL52 with three empty control strains gave a value in 28% of cases (median 3.91, 5th percentile 2.90). Values in that range, when seen in few replicates, are hard to tell from nonspecific mating. The control count says in how many pairings with the empty strains this scFv gave a signal, with their mean in brackets.

CDR-L1 | CDR-L2 | CDR-L3 | log10 Kd (nM) by replicate | mean log10 Kd (nM) | control signals
EGDSLRYEYAN | GKNNRPS | SGRDSEGFQVF | 1.54 1.61 0.99 | 1.38 | 2 of 9 (3.80)
EGDMLLYYYAN | GKNNRPS | SSRDSSTFQVF | n.d. 3.60 n.d. | 3.60 | 2 of 9 (3.97)
EGDSLRYYYAN | GQNNRPS | VSRDSSGFQYF | 3.22 2.26 3.27 | 2.92 | 5 of 9 (3.41)
EGDSLRYYYAN | GKNNRPS | SSIDSSGPQVF | 2.32 2.38 2.03 | 2.24 | 3 of 9 (3.98)
EGDSLRYYYCN | GKNNRPS | SSRDSSGEQVF | 2.28 2.14 3.81 | 2.75 | 3 of 9 (4.60)
EGRSLRYYYAN | GKINRPS | SSLDSSGFQVF | 3.81 3.88 n.d. | 3.84 | 3 of 9 (3.68)
EGDSLRVYYAN | GKNNRLS | SSRDSSGFQSF | 3.87 5.25 n.d. | 4.56 | 4 of 9 (5.03)
EGDSLRYYYAQ | GKNNRPS | SEADSSGFQVF | 3.54 3.41 n.d. | 3.47 | 1 of 9 (2.86)
CADLLRYYYAN | GKNNRPS | SSRDSSGFQVF | 4.12 n.d. n.d. | 4.12 | 6 of 9 (3.72)
MGDSLRYYYAN | GKNNRGS | SSRDLSGFQVF | 2.88 2.77 2.14 | 2.60 | 5 of 9 (4.11)
EGDSLTYYYAR | GKNNRPS | SSRDSSIFQVF | 5.82 4.57 n.d. | 5.20 | 3 of 9 (4.19)
EGDSESYYYAN | GKNLRPS | SSRDSSGFQVF | 4.96 n.d. n.d. | 4.96 | 0 of 9
EGDSLRYYYDN | GKNNRPF | SHRDSSGFQVF | n.d. n.d. n.d. | n.d. | 0 of 9
EGDSLRRYYNN | SKNNRPS | SSRDSSGFQVF | n.d. 4.08 n.d. | 4.08 | 1 of 9 (4.08)
CGDSLRYYYGN | GKNNRPS | SSRDSSGCQVF | n.d. n.d. 4.35 | 4.35 | 5 of 9 (4.01)
EGDSLRYYYAN | GKNARPS | SSRDASGFQWF | 3.37 3.29 2.64 | 3.10 | 2 of 9 (3.32)
EGESLRDYYAN | GKNNRPS | SSRDSSGFMVF | 1.88 1.93 1.44 | 1.75 | 8 of 9 (3.67)
EGGSLRYYYAP | GINNRPS | SSRDSSGFQVF | 5.09 3.43 n.d. | 4.26 | 4 of 9 (3.43)
KGDSLRYYYVN | GKNNRPI | SSRDSSGFQVF | 2.42 2.40 1.82 | 2.21 | 6 of 9 (3.83)
EGDSLRYYYAV | GKNNRPS | KSRDSSGRQVF | n.d. 4.20 n.d. | 4.20 | 2 of 9 (4.82)
EGDSLHYYYAN | GYNNWPS | SSRDSSGFQVF | 3.93 4.22 3.97 | 4.04 | 4 of 9 (3.93)
EGDSLRYYYAN | GKNVRPI | SSRDRSGFQVF | 2.30 2.47 2.16 | 2.31 | 5 of 9 (4.61)
EGDSLTYYYAK | GKNNRPS | SSRDSVGFQVF | 3.59 n.d. n.d. | 3.59 | 2 of 9 (3.12)
EGDSLRYYYAN | NKNFRPS | SSRDSSGFTVF | 4.79 n.d. n.d. | 4.79 | 0 of 9
EGDALRYYYAC | GKNNRPS | SSRDSSGFQQF | n.d. n.d. n.d. | n.d. | 1 of 9 (3.23)
EGYSLRYYYAN | GKNNRPS | SSRDSDGFQMF | 4.14 4.16 3.65 | 3.98 | 1 of 9 (3.14)
EGWSLRYYYAN | GKNNRPS | SSSDSSCFQVF | 3.34 n.d. n.d. | 3.34 | 0 of 9
EGDNLWYYYAK | GKNNRPS | SSRDSSGFQVF | n.d. n.d. n.d. | n.d. | 0 of 9
FGDSLRYYYAN | GKNNRPS | SHRESSGFQVF | 5.00 4.16 2.44 | 3.87 | 1 of 9 (3.59)
IGDSLRYYYAN | GKNNRNS | SSRDSSGFWVF | n.d. n.d. n.d. | n.d. | 2 of 9 (2.99)
EGDSLVYEYAN | GKNNRPH | SSRDSSGFQVF | 1.71 1.81 1.69 | 1.74 | 0 of 9
EGDSLRYYYAN | GKQNVPS | SSRDSSGFSVF | 3.51 5.44 n.d. | 4.48 | 1 of 9 (4.94)
EGMSLRYYYAN | GKNNRPS | SSRHSSGFQQF | 2.99 2.43 2.18 | 2.53 | 5 of 9 (4.49)
EGDQLRYYYAN | GKNNRPS | SSRDSKGFQVF | n.d. n.d. n.d. | n.d. | 0 of 9
EGDSLRYYYQN | GKNNRPS | SSRDSSGHEVF | 4.96 4.83 n.d. | 4.89 | 4 of 9 (3.60)
WGDVLRYVYAN | GKNNRPS | SSRDSSGFQVF | 2.89 3.21 2.77 | 2.96 | 2 of 9 (3.95)
EGDSLRYYYAS | GKNNRPS | SSRVSSGCQVF | n.d. 3.82 3.12 | 3.47 | 3 of 9 (3.81)
EGDSLVYYYAN | GKNNRPD | SSRDSSGVQVF | 2.75 2.66 2.79 | 2.73 | 4 of 9 (3.93)
EGDSLRYYYMN | GKNNRPP | SSRDSSGFQVF | 3.36 4.12 2.93 | 3.47 | 4 of 9 (4.15)
EGDSWRYYYAP | GKNNRPS | SQRDSSGFQVF | n.d. n.d. n.d. | n.d. | 0 of 9
EGTSLLDYYAN | GKNNRPS | SSRDSSGFQVF | 1.58 1.48 1.25 | 1.44 | 3 of 9 (4.31)
EGDSLRYYYAW | GKNNRPP | SSRDSSGFQVF | 3.54 n.d. n.d. | 3.54 | 5 of 9 (4.28)
RGDSLRYYYAN | GKCNRPS | SSIDSSGFQVF | n.d. n.d. n.d. | n.d. | 1 of 9 (3.29)
EGDSLRYYYAN | GKNNRPS | SHRDSSVFMVF | n.d. n.d. n.d. | n.d. | 3 of 9 (4.39)
EGDSLRYYYAN | GKNWRVS | SSRDSSGFQVF | n.d. n.d. 3.32 | 3.32 | 1 of 9 (4.37)
EGDSLDYYYAN | GKNNQPS | SSRDSSGFQVF | 3.04 n.d. n.d. | 3.04 | 1 of 9 (3.00)
EGDSSRYYYAN | GKENRPS | SSRDSSGFQHF | 3.74 n.d. n.d. | 3.74 | 0 of 9
WGDSLRYYYAN | GGNNYPS | SSRDSSGFQVF | 3.91 3.53 2.83 | 3.43 | 4 of 9 (4.17)

Excerpt, the first 6 entries:

CDR-L1,CDR-L2,CDR-L3,log10 Kd (nM) by replicate,mean log10 Kd (nM),control signals
EGDSLRYEYAN,GKNNRPS,SGRDSEGFQVF,1.54 1.61 0.99,1.38,2 of 9 (3.80)
EGDMLLYYYAN,GKNNRPS,SSRDSSTFQVF,n.d. 3.60 n.d.,3.60,2 of 9 (3.97)
EGDSLRYYYAN,GQNNRPS,VSRDSSGFQYF,3.22 2.26 3.27,2.92,5 of 9 (3.41)
EGDSLRYYYAN,GKNNRPS,SSIDSSGPQVF,2.32 2.38 2.03,2.24,3 of 9 (3.98)
EGDSLRYYYCN,GKNNRPS,SSRDSSGEQVF,2.28 2.14 3.81,2.75,3 of 9 (4.60)
EGRSLRYYYAN,GKINRPS,SSLDSSGFQVF,3.81 3.88 n.d.,3.84,3 of 9 (3.68)